Measured values from patent US20260315474A1 (BRISTOL-MYERS SQUIBB COMPANY, priority 2023, published 2026).
“Also recorded” adds a separate entry of the source.

What was measured:
[1] = tested on: activated partial thromboplastin time (aPTT); experiment: aPTT after multiple oral doses in healthy subjects; type: in vivo, human
[2] = tested on: activated partial thromboplastin time (aPTT); experiment: Activated partial thromboplastin time (aPTT), AXIOMATIC-SSP; type: in vivo, human; conditions: 25 mg QD to 200 mg BID
prothrombin time (PT) = experiment: Prothrombin time (PT); conditions: single or multiple doses, human subjects

SMILES: C[C@@H]1CCC[C@H](n2cnc(-c3cc(Cl)ccc3-n3cc(Cl)nn3)cc2=O)c2cc(ccn2)-c2c(cnn2C(F)F)NC1=O [milvexian, (5R,9S)-9-(4-(5-chloro-2-(4-chloro-1H-1,2,3-triazol-1-yl)phenyl)-6-oxopyrimidin-1(6H)-yl)-2^1-(difluoromethyl)-5-methyl-2^1H-3-aza-1(4,2)-pyridina-2(5,4)-pyrazolacyclonaphan-4-one]
- effect on aPTT [1]: dose- and concentration-dependent prolongation of aPTT
- dose-response of aPTT [2]: dose-dependent increase in aPTT percent change from baseline; also recorded: Dose-dependent increases in aPTT
- effect on prothrombin time (prothrombin time (PT)): not impacted
